Measured values taken from patent publication EP3884956A1, “METHODS FOR PRODUCING HEME PEROXIDASES” (Technische Universität Wien, priority 2020, dated 2021).

By UniProt entry, the sequences of proteins in these tests, tags left out. Residues count along the entry.
UniProt P00433, 31-338 N43D/N87S/N205S/N285D/N298D: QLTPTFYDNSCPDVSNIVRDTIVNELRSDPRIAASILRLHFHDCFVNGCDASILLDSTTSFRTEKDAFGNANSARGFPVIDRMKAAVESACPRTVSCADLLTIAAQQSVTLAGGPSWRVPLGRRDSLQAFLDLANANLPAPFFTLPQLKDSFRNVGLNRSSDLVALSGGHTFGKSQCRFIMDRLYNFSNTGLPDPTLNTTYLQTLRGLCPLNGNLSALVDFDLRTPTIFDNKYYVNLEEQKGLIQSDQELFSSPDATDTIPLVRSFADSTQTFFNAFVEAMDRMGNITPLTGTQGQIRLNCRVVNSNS
UniProt P00433, 31-338 N43D/N87S/P176Q/N205S/N285D/N298D/N305K: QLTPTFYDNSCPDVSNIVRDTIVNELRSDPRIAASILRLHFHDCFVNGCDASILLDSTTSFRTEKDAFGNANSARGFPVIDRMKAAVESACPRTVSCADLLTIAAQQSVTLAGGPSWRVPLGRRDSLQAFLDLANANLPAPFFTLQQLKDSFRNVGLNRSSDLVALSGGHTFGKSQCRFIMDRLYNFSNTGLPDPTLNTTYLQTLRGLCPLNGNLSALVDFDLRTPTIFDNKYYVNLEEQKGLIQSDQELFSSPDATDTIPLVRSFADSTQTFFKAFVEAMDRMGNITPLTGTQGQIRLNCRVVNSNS

Experiments:
Test in all cases: Enzyme kinetic parameters, 96-well plate assay
Assay type in all cases: biochemical
[1] = biological target: T1, plant-derived HRP (pHRP; Plant HRP Type VI-A, horseradish peroxidase) (Armoracia rusticana, UniProt P00433); details: Table 19; ABTS 0.1 - 7 mM, 1 mM hydrogen peroxide, 50 mM phosphate-citrate buffer pH 5, 30 °C
T1 sequence (P00433 31-338): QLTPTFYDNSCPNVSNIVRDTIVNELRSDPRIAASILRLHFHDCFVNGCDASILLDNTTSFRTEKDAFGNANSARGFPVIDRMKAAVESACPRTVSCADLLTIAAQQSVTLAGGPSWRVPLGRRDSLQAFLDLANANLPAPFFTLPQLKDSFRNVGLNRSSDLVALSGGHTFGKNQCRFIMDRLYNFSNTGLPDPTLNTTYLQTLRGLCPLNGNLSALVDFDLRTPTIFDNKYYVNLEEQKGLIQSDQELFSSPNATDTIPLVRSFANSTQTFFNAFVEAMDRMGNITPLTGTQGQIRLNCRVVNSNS
Description: (§1) Plant HRP Type VI-A (Cat. No.: P6782) was obtained from Sigma-Aldrich (St. Louis, MO, USA). All HRP variants produced in E. coli consisted of the sequence as set forth in SEQ ID NO: 2 with the indicated mutations unless specified otherwise.
(§2) For measurements with 3,3',5,5'-tetramethylbenzidine (TMB) as substrate, the reaction mixture in each well of the 96-well plate contained a saturating hydrogen peroxide concentration of 1 mM and varying TMB concentrations (20 - 550 µM) in 50 mM phosphate-citrate buffer pH 5 in a final volume of 200 µL. Protein sample (5 µL) was mixed with 175 µl TMB-buffer mixture and the reaction was started with 20 µl hydrogen peroxide solution (10 mM). The increase in absorption was followed at 652 nm for 60s at 30 °C in a Tecan Infinite M200 PRO instrument. The kinetic parameters were calculated using Sigma Plot software (Systat Software INC., San Jose, CA, USA) and an extinction coefficient of ε652 = 39 mM^-1 cm^-1 (see Josephy, et al. "The horseradish peroxidase-catalyzed oxidation of 3, 5, 3', 5'-tetramethylbenzidine. Free radical and charge-transfer complex intermediates." Journal of Biological Chemistry 257.7 (1982): 3669-3675).
Protein sample (5 µL) was mixed with 175 µl ABTS-buffer mixture and the reaction was started with 20 µl hydrogen peroxide solution (10 mM). […]

[2] = biological target: T2, horseradish peroxidase variant HRP N13D/N57S/N175S/N255D/N268D (Armoracia rusticana, UniProt P00433, N205S/N285D/N298D/N43D/N87S); details: Table 18, ABTS 0.1 - 7 mM, 1 mM hydrogen peroxide, 50 mM phosphate-citrate buffer pH 5, 30 °C
T2 sequence (P00433 31-338 N43D/N87S/N205S/N285D/N298D): T1 sequence (P00433 31-338) with N13D, N57S, N175S, N255D, N268D
Description: as §1, §2
(§3) Protein sample (5 µL) was mixed with 175 µl ABTS-buffer mixture and the reaction was started with 20 µl hydrogen peroxide solution (10 mM). The increase in absorption was followed at 420 nm for 120 s at 30 °C in a Tecan Infinite M200 PRO instrument. The kinetic parameters were calculated using Sigma Plot software (Systat Software INC., San Jose, CA, USA) and an extinction coefficient of ε420 = 36 mM^-1 cm^-1 (see Childs and Bardsley. "The steady-state kinetics of peroxidase with 2, 2'-azino-di-(3-ethyl-benzthiazoline-6-sulphonic acid) as chromogen." Biochemical Journal 145.1 (1975): 93-103).
as §3, with “The” for “Protein sample (5 µL) was mixed with 175 µl ABTS-buffer mixture and the reaction was started with 20 µl hydrogen peroxide solution (10 mM). The”

[3] = biological target: T3, horseradish peroxidase variant HRP N13D/N57S/P146Q/N175S/N255D/N268D/N275K (mHRP, SEQ ID NO: 4) (Armoracia rusticana, UniProt P00433, N205S/N285D/N298D/N305K/N43D/N87S/P176Q); details: ABTS 0.1 - 7 mM, 1 mM hydrogen peroxide, 50 mM phosphate-citrate buffer pH 5, 30 °C; for Km: read-out: Km (substrate ABTS)
T3 sequence (P00433 31-338 N43D/N87S/P176Q/N205S/N285D/N298D/N305K): T1 sequence (P00433 31-338) with N13D, N57S, P146Q, N175S, N255D, N268D, N275K
Description: as §1, §2, §3
as §3, with “The” for “Protein sample (5 µL) was mixed with 175 µl ABTS-buffer mixture and the reaction was started with 20 µl hydrogen peroxide solution (10 mM). The”

In the case of `CCn1c(=NN=c2sc3cc(S(=O)(=O)O)ccc3n2CC)sc2cc(S(=O)(=O)O)ccc21` [ABTS, 2,2'-azino-bis(3-ethylbenzothiazoline-6-sulfonic acid)], the “kcat (substrate ABTS)” value [1] is reported as 734 ± 41 s⁻¹, the “kcat (substrate ABTS)” value [2] is reported as 786 ± 74 s⁻¹ and the Km ([2]; read-out: Km (substrate ABTS)) is reported as 845 ± 270 µM. The “kcat (substrate ABTS)” value ([3]; Table 18) was 716 ± 58 s⁻¹, the “kcat (substrate ABTS)” value ([3]; Table 19) was 702 ± 56 s⁻¹ and the Km ([3]; Table 18) was 765 ± 210 µM. For the same molecule, the Km ([3]; Table 19) was 860 ± 230 µM.

Changes are numbered by the printed parent chain. Like-named read-outs stand apart in the source and are kept apart here.
